Assays:
PIK3CB (Human) [1] = biological target: PIK3CB (Human) (UniProt P42338); assay: Cell-Based Assay; conditions: rat-1
PIK3CB (Human) [2] = biological target: PIK3CB (Human) (UniProt P42338); assay: Enzyme Assay
PIK3CA (human) [3] = biological target: PIK3CA (human) (UniProt P42336); assay: Cell-Based Assay; conditions: rat-1
PIK3CA (human) [4] = biological target: PIK3CA (human) (UniProt P42336); assay: Enzyme Assay

Chains of the proteins cited; added tags and fusions are not shown. Lines headed by an entry give the natural chain unless they say otherwise; changes in a name come on top.
UniProt P42338: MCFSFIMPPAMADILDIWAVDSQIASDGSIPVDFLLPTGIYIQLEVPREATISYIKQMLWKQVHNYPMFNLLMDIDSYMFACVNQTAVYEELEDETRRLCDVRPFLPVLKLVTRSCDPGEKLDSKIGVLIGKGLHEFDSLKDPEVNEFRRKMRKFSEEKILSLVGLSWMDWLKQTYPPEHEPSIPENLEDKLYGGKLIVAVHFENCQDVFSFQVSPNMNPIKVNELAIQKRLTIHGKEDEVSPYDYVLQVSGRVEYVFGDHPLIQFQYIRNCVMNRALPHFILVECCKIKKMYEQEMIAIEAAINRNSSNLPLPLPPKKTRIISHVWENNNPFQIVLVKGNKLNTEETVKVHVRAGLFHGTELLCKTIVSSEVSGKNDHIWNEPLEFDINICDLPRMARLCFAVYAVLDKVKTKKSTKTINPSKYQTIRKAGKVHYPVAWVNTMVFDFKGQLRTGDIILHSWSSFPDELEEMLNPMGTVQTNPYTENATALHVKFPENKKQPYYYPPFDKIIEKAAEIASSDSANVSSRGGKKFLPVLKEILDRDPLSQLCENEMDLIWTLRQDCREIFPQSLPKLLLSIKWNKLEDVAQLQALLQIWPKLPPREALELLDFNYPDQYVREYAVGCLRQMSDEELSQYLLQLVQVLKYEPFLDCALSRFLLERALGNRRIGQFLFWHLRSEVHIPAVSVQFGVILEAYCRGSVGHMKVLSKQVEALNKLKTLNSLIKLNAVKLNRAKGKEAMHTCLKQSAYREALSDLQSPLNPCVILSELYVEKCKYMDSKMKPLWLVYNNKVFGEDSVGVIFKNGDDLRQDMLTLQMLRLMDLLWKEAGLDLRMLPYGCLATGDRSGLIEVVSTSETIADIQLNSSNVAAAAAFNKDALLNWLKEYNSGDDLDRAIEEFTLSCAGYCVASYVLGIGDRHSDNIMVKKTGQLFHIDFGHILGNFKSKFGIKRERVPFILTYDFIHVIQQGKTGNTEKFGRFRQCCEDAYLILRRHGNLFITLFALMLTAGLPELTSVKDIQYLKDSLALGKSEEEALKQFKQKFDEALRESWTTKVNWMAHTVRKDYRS
UniProt P42336, whole entry, looked up: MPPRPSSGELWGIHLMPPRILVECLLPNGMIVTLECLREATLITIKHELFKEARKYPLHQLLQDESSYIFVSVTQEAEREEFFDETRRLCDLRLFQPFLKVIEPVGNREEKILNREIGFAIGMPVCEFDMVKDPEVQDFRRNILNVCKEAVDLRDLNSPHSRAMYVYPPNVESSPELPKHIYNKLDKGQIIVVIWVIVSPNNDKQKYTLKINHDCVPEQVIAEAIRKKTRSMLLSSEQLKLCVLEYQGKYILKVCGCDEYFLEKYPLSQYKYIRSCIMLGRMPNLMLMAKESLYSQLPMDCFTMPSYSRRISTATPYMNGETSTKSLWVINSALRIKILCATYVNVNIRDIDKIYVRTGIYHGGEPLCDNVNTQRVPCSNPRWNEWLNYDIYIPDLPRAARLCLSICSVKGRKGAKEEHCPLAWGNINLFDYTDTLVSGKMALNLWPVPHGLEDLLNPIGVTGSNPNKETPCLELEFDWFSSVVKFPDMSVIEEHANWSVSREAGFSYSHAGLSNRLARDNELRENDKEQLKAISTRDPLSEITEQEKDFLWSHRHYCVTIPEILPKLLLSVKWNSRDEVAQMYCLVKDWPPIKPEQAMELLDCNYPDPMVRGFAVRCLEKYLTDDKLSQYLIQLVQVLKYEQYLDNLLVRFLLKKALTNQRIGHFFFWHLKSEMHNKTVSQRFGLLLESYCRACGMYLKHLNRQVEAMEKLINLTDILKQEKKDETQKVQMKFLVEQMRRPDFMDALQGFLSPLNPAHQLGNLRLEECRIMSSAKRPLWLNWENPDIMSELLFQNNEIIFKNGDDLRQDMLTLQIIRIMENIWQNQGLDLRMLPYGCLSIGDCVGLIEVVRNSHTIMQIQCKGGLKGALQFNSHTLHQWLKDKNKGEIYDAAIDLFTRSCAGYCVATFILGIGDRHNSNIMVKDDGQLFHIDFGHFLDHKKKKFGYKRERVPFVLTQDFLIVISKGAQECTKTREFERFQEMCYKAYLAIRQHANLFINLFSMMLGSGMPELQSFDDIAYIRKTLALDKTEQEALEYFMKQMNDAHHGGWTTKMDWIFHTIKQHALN

| IC50 (PIK3CB (Human) [1]) | IC50 (PIK3CB (Human) [2]) | IC50 (PIK3CA (human) [3]) | IC50 (PIK3CA (human) [4]) | SMILES |
| --- | --- | --- | --- | --- |
| 156 nM | 15 nM |  |  | Nc1ncc(-c2cc(N3CCOCC3)nc(N3CCOCC3)n2)c(C(F)(F)F)n1 |
|  |  | 930 nM | 71 nM | CC[C@@H]1[C@@H](c2cccc(OC)c2)OC(=O)N1c1cc(-c2cnc(N)nc2C(F)(F)F)nc(N2CCOCC2)n1 |
|  |  |  | 78 nM | CC[C@H]1[C@H](c2ccc(OC)cc2)OC(=O)N1c1cc(-c2cnc(N)nc2C(F)(F)F)nc(N2CCOCC2)n1 |

Source: the Kinase Knowledgebase extract (Sharma et al. 2016)
